From patent US9278954B2, “Pyrrolidine derivatives, pharmaceutical compositions and uses thereof” (Boehringer Ingelheim International GmbH, priority 2013, dated 2016)
Where two headings read alike, the source gives them in different places.

By UniProt entry, the sequences of proteins in these tests, tags left out. Residues count along the entry.
UniProt O00763, 129-2458: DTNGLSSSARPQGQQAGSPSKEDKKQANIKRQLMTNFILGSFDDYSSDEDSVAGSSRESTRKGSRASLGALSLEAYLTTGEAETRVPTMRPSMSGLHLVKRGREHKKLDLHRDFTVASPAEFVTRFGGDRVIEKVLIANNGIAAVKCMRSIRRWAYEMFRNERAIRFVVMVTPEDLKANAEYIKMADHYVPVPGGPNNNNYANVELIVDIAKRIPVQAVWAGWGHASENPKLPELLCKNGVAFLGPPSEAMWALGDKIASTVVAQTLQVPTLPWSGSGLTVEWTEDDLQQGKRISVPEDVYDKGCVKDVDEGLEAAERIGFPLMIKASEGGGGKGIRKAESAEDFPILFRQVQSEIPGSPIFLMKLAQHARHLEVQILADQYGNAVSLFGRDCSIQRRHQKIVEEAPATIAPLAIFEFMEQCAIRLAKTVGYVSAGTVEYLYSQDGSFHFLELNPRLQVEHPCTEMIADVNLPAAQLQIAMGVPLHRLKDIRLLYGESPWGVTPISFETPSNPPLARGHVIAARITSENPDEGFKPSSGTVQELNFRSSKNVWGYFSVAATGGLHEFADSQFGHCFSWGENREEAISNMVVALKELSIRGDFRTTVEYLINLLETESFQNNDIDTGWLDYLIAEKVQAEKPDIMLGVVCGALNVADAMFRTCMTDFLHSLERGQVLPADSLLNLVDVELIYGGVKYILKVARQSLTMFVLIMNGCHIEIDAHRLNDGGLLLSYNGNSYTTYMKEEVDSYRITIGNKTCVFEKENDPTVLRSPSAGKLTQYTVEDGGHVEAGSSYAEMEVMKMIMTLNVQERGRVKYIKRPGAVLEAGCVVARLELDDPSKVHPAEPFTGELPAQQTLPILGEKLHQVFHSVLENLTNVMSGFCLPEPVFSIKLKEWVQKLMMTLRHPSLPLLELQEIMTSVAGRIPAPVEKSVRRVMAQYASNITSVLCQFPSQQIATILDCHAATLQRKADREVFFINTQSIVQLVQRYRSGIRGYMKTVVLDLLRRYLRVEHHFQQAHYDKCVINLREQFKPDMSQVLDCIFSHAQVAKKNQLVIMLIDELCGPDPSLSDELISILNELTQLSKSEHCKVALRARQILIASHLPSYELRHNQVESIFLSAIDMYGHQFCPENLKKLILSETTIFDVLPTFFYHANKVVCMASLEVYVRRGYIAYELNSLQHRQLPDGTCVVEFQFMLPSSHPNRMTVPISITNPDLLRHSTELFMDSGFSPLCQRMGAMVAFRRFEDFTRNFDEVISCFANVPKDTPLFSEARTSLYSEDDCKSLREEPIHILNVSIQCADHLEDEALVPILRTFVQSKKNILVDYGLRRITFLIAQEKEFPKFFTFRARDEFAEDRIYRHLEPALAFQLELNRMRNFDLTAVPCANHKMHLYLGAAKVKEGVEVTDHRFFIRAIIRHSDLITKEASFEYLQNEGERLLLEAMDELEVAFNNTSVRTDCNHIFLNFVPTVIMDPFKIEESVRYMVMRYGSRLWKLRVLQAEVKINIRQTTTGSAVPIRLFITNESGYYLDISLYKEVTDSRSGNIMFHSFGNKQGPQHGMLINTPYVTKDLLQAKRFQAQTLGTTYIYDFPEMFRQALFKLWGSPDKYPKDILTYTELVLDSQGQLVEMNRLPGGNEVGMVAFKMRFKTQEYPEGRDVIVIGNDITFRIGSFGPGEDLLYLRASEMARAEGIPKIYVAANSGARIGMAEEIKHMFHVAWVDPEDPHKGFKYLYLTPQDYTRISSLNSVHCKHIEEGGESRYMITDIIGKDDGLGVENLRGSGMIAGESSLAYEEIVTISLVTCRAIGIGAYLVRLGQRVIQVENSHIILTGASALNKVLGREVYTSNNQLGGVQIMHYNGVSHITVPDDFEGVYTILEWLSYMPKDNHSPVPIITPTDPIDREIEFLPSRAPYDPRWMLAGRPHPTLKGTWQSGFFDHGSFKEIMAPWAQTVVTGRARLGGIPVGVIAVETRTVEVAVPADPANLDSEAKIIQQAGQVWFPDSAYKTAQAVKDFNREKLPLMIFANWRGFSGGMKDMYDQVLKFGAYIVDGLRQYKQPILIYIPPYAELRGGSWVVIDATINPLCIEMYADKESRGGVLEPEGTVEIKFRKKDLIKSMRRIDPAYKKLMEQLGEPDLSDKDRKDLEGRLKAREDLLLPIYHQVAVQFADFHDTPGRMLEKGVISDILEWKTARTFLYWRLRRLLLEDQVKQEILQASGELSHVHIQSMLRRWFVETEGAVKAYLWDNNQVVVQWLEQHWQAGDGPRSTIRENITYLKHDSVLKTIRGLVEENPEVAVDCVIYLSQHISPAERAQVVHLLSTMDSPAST

Molecular target: human ACC2 (Homo sapiens (Human), UniProt O00763)
Test: ACC2 assay (spectrophotometric 384 well assay, NADH-linked kinetic method)
Type: biochemical
Description: Spectrophotometric 384 Well Assay
Malonyl CoA formation by acetyl CoA carboxylases is stoichometrically linked to the consumption of ATP. ACC2 activity is measured in a NADH-linked kinetic method measuring ADP generated during the ACC reaction using a coupled lactate dehydrogenase/pyruvate kinase reaction.
The protein is then expressed in insect cells using a baculoviral expression system. Protein purification is performed by anion exchange.
All compounds are dissolved in dimethyl sulfoxide (DMSO) to a concentration of 10 mM.
The enzymatic reaction is then started by addition of a mixture of NADH, acetyl
Coenzyme A (both […].) and ATP (500 uM f.c.). The decrease of the optical density (slope S) is then determined at 25° C. at a wavelength of 340 nm over 15 minutes in a spectrophotometric reader.
Each assay microtiter plate contains wells with vehicle instead of compound as controls for the non-inhibited enzyme (100% CTL; ‘HIGH’) and wells without acetyl-CoA as controls for non-specific NADH degradation (0% CTL; ‘LOW’).

[1] = hACC2 construct lacking the 128 N-terminal amino acids, 25° C., 340 nm over 15 minutes

| IC50 [1] [nM] | Compound | IC50 [nM] |
| --- | --- | --- |
| – | CC(C(=O)NC1CC1)c1ccc(O[C@@H]2CCN(c3ncnc(OCC(C)(C)O)c3Cl)C2)cc1 (stereo partly drawn) [Example 1.1, 2-(4-(1-[5-Chloro-6-(2-hydroxy-2-methyl-propoxy)-pyrimidin-4-yl]-(R)-pyrrolidin-3-yloxy)-phenyl)-N-cyclopropyl-propionamide] | 139 |
| 1010 | CC(C(N)=O)c1ccc(O[C@@H]2CCN(c3ncnc(OCC(C)(C)O)c3Cl)C2)cc1 (stereo partly shown) [Example 3.11] | – |
| 1950 | CC(C#N)NC(=O)C(C)c1ccc(O[C@@H]2CCN(c3ncnc(OCC(C)(C)O)c3Cl)C2)cc1 (stereo partly shown) [Example 3.13] | – |
| 75 | CCCOc1ccc(N2CC[C@@H](Oc3ccc(C(C)C(=O)NCC)cc3)C2)cc1 (stereo partly shown) [Example 7.34] | – |
